Data from ChEMBL document CHEMBL1130142, “(S)-spiro[(1,3-diazacyclopent-1-ene)-5,2'-(7'-methyl-1',2',3',4'- tetrahydronaphthalene)]: resolution, stereospecific synthesis, and preliminary pharmacological characterization as a partial alpha-adrenergic agonist” (J Med Chem, 1997).

What was measured:
[1] = C20 ratio was determined in the presence or absence of 1 mg of yohimbine for the compound which are indicative of the contribution of alpha-2 adnergic mechanisms to the pressor response; assay type: functional
Procedure, shortened: (§1)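 Pithed rats received test compound as cumulative iv doses, and mean arterial pressure was recorded. C20 is the iv dose (µg/kg) that raises arterial pressure by 20 mmHg (mean ± SEM, n = 5). The same cumulative doses were repeated 10 min after iv prazosin 100 µg/kg or iv yohimbine 1 mg/kg. The ratio is C20 without antagonist over C20 with antagonist.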

[2] = C20 ratio was determined in the presence or absence of 0.1 mg of prazosin for the compound which are indicative of the contribution of alpha-1 adnergic mechanisms to the pressor response; assay type: functional; procedure, shortened: as §1

Row | Structure (SMILES) | Ratio [1] | Ratio [2]
1 | Cc1ccc2c(c1)C[C@@]1(CC2)CN=CN1 | 4.2 | 6.5
2 | Cc1ccc2c(c1)CC1(CC2)CN=CN1 (stereo unspecified) | 7.9 | 6.1
3 | Cc1ccc2c(c1)C[C@]1(CC2)CN=CN1 | 12 | 20
